The structures appear in SMILES notation. The entries are a selection whose mix differs from that of the whole data set. Inconclusive results are not listed. Some structures show a salt or complex split into parts, the way the source records it. Calls of active or inactive are those of the source. The call rests on the fitted dose curve; in most records, active means well fitted inhibition curve with a large enough effect; inconclusive means small, poorly fitted or top-dose-only effect, or another doubt; inactive means no such curve, though single readings can be large or run the other way.
On the % scale 0 is the no-effect control and ±100 the full control effect.

The chains behind the UniProt entries cited, without tags or fusion partners.
UniProt Q9UBT6, whole entry: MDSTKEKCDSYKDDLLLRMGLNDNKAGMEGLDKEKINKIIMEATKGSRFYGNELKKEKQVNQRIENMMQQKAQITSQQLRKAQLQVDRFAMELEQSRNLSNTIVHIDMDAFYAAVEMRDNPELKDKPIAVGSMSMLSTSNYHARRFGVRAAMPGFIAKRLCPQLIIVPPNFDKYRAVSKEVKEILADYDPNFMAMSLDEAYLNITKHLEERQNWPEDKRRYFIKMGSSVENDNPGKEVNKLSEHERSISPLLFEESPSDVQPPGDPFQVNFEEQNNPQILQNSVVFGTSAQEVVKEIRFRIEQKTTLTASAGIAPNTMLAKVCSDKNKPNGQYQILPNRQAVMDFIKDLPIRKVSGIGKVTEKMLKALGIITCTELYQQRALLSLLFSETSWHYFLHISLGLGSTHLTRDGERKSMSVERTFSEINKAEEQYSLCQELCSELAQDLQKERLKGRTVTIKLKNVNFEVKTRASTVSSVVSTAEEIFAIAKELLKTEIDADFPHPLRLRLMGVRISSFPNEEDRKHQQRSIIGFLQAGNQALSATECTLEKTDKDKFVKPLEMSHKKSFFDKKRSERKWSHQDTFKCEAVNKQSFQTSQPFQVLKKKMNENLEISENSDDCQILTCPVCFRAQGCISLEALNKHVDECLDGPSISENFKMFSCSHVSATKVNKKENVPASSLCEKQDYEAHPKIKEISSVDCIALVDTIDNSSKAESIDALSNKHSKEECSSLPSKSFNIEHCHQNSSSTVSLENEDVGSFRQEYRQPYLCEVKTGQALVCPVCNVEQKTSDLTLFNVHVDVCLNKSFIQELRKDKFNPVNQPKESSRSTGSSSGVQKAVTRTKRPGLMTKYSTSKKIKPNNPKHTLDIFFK

In the assay the target is DNA polymerase kappa (Homo sapiens) (UniProt Q9UBT6). Put plainly: qHTS for Inhibitors of Polymerase Kappa. The conditions noted are these: purified Pol kappa, fluorescent DNA synthesis assay, 10 min; at 107 µM (top of the series). Here is the method: The processing and repair of DNA interstrand crosslinks (ICL) in eukaryotic cells are extremely complex, potentially involving multiple DNA repair and damage tolerance pathways, including homologous recombination, nucleotide excision repair, translesion synthesis (TLS), and cell cycle checkpoints.
To that end, in a collaboration between the Oregon Health & Science University and the NIH Chemical Genomics Center a 1536-well high-throughput screen was developed. This fluorescent screen was assayed against the NIH Molecular Libraries Small Molecule Repository (MLSMR) to discover inhibitors of Pol Kappa.
NIH Chemical Genomics Center [NCGC]
NIH Molecular Libraries Probe Centers Network [MLPCN]
Assay Submitter (PI): Stephen Lloyd, Oregon Health & Science University
Three microliters of reagents (buffer in column 3 and 4 as negative control and 10 nM Pol kappa in columns 1, 2, and 5-48) were dispensed into a 1536-well black solid-bottom plate. Compounds (23 nL) were transferred via Kalypsys pin tool equipped with 1536-pin array. The plates were then incubated for 15 min at room temperature, and 1 uL substrate (50 nM final concentration) were then added to start the reaction and kinetically read twice at 0 min and 10 min on the Viewlux reader
A general note: In qHTS, concentration-response curves come from the screen itself.
As to `ClCCN(CCCl)c1ccccc1`, the activity, negative = inhibition was inactive: -14.4%.
In the case of `ClCCN(CCCl)c1ccc(C=C2C=CC=C2)cc1` it was inactive: -20.9%; in that of `Cn1c(=O)[nH]cc(N(CCCl)CCCl)c1=O`, inactive: -3.39%; in that of `Cc1cc(N(CCCl)CCCl)ccc1C=O`, inactive: -3.8%.
Under `CCOC(=O)C(CC)C1=NC(C)(C)Cc2ccccc21.O=[N+]([O-])c1cc([N+](=O)[O-])c(O)c([N+](=O)[O-])c1` (stereo not drawn) stands inactive: -12.4%.
In the case of `O=C(O)c1cccc(Nc2c([N+](=O)[O-])cc([N+](=O)[O-])cc2[N+](=O)[O-])c1` it was inactive: -24.8%; in that of `N/C(=N\O)c1c(N)no[n+]1[O-]`, inactive: -9.92%.
On to `O=Cc1ccc(N(CCCl)CCCl)cc1`, for which the activity, negative = inhibition is inactive: 4.72%.
Under `COc1ccc2c(c1O)-c1c(O)c(OC)cc3c1[C@H](C2)[N+](C)(C)CC3.O=[N+]([O-])c1cc([N+](=O)[O-])c([O-])c([N+](=O)[O-])c1[O-]` stands inactive: -30.1%.
Under `O=C(OC1CN2CCC1CC2)c1ccc([N+](=O)[O-])cc1` (stereo not drawn) stands inactive: 4.56%; under `O=[N+]([O-])c1cc([N+](=O)[O-])c(OC2CCCCC2O)c([N+](=O)[O-])c1` (stereo not drawn), inactive: -3.94%; under `O=[N+]([O-])c1cc([N+](=O)[O-])c(NCC2CCS(=O)(=O)C2)c([N+](=O)[O-])c1` (stereo not drawn), inactive: -3.16%.
In the case of `O=P1(N(CCCl)CCCl)SCCCS1`, the activity, negative = inhibition was inactive: -24.1%.

The values are drawn from PubChem BioAssay AID588579 (National Center for Advancing Translational Sciences (NCATS), 2011).
